Experimental data: patent publication US9493501B2, “Methyltransferase inhibitors for treating cancer” (MEMORIAL SLOAN-KETTERING CANCER CENTER, priority 2011, dated 2016)
pIC50: −log10 of the molar value.

Chains of the proteins cited; added tags and fusions are not shown. Residues count along the entry.
UniProt Q9NQR1, 232-393 limits assumed: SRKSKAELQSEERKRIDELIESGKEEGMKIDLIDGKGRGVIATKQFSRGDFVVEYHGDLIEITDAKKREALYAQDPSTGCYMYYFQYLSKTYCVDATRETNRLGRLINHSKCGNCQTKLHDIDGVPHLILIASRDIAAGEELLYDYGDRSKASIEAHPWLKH
UniProt Q9BYW2, 1347-1711 limits assumed: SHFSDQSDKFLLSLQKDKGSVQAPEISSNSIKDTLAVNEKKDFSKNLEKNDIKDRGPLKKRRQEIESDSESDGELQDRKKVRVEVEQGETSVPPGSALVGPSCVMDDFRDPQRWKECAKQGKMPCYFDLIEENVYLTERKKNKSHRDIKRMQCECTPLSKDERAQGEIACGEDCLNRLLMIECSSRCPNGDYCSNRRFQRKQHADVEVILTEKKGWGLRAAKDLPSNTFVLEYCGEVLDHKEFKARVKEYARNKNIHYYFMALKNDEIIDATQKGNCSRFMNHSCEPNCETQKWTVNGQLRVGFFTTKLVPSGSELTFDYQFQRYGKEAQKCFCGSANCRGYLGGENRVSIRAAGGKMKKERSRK
UniProt Q9NRG4, whole entry: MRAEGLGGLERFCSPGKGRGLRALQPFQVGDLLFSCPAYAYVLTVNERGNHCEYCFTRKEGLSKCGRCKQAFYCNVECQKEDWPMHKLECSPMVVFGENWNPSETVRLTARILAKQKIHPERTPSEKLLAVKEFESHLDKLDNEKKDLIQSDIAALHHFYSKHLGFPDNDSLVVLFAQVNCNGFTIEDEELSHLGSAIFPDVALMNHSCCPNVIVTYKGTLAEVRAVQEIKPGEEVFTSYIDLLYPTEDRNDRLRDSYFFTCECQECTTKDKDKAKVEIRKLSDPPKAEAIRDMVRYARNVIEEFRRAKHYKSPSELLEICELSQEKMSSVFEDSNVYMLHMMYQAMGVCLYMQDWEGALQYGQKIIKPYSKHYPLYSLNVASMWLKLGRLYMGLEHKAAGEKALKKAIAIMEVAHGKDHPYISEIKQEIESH
UniProt Q96KQ7, 913-1193 limits assumed: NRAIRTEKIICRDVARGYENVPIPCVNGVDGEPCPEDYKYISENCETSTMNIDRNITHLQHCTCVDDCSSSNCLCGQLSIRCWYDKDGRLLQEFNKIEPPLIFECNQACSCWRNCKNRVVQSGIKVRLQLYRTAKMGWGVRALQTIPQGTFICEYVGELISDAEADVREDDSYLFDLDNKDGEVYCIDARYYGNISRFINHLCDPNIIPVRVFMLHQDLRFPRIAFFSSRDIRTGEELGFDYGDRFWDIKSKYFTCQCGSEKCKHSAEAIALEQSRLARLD
UniProt O60678, 211-531 limits assumed: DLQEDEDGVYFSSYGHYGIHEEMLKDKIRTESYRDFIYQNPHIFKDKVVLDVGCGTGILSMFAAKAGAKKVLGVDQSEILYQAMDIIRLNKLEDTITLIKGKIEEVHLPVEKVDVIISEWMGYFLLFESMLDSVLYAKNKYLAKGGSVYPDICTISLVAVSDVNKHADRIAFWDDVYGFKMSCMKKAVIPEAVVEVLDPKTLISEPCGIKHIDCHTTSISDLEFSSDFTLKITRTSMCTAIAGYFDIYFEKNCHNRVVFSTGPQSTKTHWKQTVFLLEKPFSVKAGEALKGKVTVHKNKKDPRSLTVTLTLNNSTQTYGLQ
UniProt Q9H5I1, 112-410 limits assumed: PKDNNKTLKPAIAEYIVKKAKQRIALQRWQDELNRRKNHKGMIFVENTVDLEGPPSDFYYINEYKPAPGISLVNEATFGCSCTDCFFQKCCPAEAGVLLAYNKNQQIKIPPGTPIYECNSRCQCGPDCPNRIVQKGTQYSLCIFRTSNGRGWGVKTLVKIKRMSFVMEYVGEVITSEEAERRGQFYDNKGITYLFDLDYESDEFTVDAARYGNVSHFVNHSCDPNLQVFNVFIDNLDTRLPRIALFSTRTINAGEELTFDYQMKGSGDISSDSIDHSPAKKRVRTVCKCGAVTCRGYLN
UniProt Q9H9B1, 982-1266 limits assumed: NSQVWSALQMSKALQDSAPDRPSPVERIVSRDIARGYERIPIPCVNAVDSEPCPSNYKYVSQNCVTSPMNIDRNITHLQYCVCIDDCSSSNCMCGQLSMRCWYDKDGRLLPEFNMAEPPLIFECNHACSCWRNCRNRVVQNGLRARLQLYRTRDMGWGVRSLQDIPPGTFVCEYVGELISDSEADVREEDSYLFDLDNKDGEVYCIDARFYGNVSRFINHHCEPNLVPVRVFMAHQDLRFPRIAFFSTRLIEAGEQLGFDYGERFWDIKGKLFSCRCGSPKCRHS
UniProt Q99873, 10-352 isoform 3 limits assumed: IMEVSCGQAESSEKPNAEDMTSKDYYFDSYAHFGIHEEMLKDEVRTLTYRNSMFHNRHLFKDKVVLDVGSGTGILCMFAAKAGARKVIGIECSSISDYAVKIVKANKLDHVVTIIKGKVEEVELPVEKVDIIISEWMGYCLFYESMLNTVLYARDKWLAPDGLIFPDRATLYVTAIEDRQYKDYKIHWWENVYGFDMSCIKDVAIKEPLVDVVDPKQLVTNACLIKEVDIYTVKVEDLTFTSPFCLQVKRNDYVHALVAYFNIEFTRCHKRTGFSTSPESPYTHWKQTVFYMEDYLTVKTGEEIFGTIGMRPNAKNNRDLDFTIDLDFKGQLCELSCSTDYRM
UniProt Q8WTS6, whole entry: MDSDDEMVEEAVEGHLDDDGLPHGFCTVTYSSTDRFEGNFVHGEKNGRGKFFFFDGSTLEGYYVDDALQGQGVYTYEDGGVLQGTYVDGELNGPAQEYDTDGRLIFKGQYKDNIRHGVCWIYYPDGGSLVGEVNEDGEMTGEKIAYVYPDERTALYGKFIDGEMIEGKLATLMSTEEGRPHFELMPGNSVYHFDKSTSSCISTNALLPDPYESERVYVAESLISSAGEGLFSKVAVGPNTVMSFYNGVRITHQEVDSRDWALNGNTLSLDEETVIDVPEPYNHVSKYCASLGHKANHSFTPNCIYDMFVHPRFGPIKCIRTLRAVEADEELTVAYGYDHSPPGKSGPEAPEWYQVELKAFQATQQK
UniProt Q86X55, 19-608 limits assumed: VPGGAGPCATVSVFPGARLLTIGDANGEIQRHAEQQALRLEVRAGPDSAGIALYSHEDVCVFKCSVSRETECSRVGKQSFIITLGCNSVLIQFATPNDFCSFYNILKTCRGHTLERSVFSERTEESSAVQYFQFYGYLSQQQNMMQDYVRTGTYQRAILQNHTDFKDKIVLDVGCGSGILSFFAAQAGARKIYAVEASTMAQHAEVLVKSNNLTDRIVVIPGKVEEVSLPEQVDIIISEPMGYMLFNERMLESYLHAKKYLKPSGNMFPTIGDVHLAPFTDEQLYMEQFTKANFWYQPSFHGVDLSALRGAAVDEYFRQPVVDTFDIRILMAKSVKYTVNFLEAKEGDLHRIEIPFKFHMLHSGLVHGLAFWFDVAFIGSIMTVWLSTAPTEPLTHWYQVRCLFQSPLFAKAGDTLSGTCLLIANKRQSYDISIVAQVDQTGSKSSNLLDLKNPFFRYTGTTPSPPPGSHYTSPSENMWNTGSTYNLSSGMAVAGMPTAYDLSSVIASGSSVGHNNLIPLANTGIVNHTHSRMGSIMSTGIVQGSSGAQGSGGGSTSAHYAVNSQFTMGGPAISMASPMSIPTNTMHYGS

How the values were obtained:
SET8 (191-352) = SET8 (191-352) (Homo sapiens, UniProt Q9NQR1); test: Filter-paper methylation assay, SET8; assay type: biochemical; details: read-out: IC50 SET8; 1000 nM enzyme, H4 (10-30 aa) peptide, 8 h
SETD2 (1347-1711) = SETD2 (1347-1711) (Homo sapiens, UniProt Q9BYW2); test: Filter-paper methylation assay, SETD2; assay type: biochemical; details: read-out: IC50 SETD2; 250 nM enzyme, H3 (20-50 aa) peptide, 4 h
SMYD2 Full-length = SMYD2 Full-length (Homo sapiens, UniProt Q9NRG4); test: Filter-paper methylation assay, SMYD2; assay type: biochemical; details: read-out: IC50 SMYD2-FL; 50 nM enzyme, p53 (360-393 aa) peptide, 10 h
G9a (913-1913) = G9a (913-1913) (Homo sapiens, UniProt Q96KQ7); test: Filter-paper methylation assay, G9a; assay type: biochemical; details: read-out: IC50 G9a; 20 nM enzyme, H3 (1-21 aa) peptide, 1 h
PRMT3 (211-531) = PRMT3 (211-531) (Homo sapiens, UniProt O60678); test: Filter-paper methylation assay, PRMT3; assay type: biochemical; details: read-out: IC50 PRMT3; 100 nM enzyme, RGG peptide, 3 h
SUV39H2 (112-410) = SUV39H2 (112-410) (Homo sapiens, UniProt Q9H5I1); test: Filter-paper methylation assay, SUV39H2; assay type: biochemical; details: read-out: IC50 SUV39H2; 5 nM enzyme, H3 (1-21 aa) peptide, 4 h
GLP1 (951-1235) = GLP1 (951-1235) (Homo sapiens, UniProt Q9H9B1); details: read-out: IC50 GLP1; 10 nM enzyme, H3 (1-21 aa) peptide, 1 h
PRMT1 (10-352) = PRMT1 (10-352) (Homo sapiens, UniProt Q99873); test: Filter-paper methylation assay, PRMT1; assay type: biochemical; details: read-out: IC50 PRMT1; 100 nM enzyme, RGG peptide, 1.5 h
SET7/9 Full-length = SET7/9 Full-length (Homo sapiens, UniProt Q8WTS6); test: Filter-paper methylation assay, SET7/9; assay type: biochemical; details: read-out: IC50 SET7/9; 150 nM enzyme, H3 (1-21 aa) peptide, 3 h
CARM1 (19-608) = CARM1 (19-608) (Homo sapiens, UniProt Q86X55); test: Filter-paper methylation assay, CARM1; assay type: biochemical; details: for pIC50: read-out: IC50 CARM1, 300 nM enzyme, H3 (1-40 aa) peptide, 7 h

| SMILES | pIC50 (SET8 (191-352)) | pIC50 (SETD2 (1347-1711)) | pIC50 (SMYD2 Full-length) | pIC50 (G9a (913-1913)) | pIC50 (PRMT3 (211-531)) | pIC50 (SUV39H2 (112-410)) | pIC50 (GLP1 (951-1235)) | pIC50 (PRMT1 (10-352)) | pIC50 (SET7/9 Full-length) | selectivity for CARM1 inhibition (CARM1 (19-608); among the subset of PMTs screened) | pIC50 (CARM1 (19-608)) |
| --- | --- | --- | --- | --- | --- | --- | --- | --- | --- | --- | --- |
| N=C(N)NC[C@@H](CC[C@H](N)C(=O)O)C[C@H]1O[C@@H](n2cnc3c(N)ncnc32)[C@H](O)[C@@H]1O | < 4.00 | 4.61 | 6.70 | 4.49 | 6.15 | 5.07 | 4.62 | 5.72 | 4.46 | apparent selectivity | 7.70 |
| COCCCCN[C@@H](CC[C@H](N)C(=O)O)C[C@H]1O[C@@H](n2cnc3c(N)ncnc32)[C@H](O)[C@@H]1O | < 4.00 | 5.54 | 6.52 | < 4.00 | 4.15 | 4.00 | < 4.00 | < 4.30 | 4.90 |  | 5.00 |
